Experiment [1] addresses T1, hOx1R (Homo sapiens (Human), UniProt O43613). The experiment is described as follows: Calcium accumulation in cells (FLIPR), hOx1R. The format is cell-based. Particulars: inhibition of orexin A induced calcium accumulation, Cheng and Prusoff correction. How it is done:
Calcium Accumulation in Cells (FLIPR):
Cells expressing human orexin 1 or human orexin 2 receptors, were seeded at 8,000 cells/well in 384 well black-walled clear bottom, poly-D-lysine coated plates. After 24 h, the medium was removed and cells were washed once with phosphate buffered saline and serum-deprived overnight in assay buffer (130 mM NaCl, 5.4 mM KCl, 1.8 mM CaCl2, 0.8 mM MgSO4, 0.9 mM NaH2PO4, 25 mM glucose, 20 mM HEPES, pH 7.4) containing bovine serum albumin (1% w/v).
On the day of the experiment, the cells seeded in black plates were treated with assay buffer containing the Ca^2+ sensitive fluorescent dye Fluo-4-AM (2 μM), and probenecid (0.1 mM). After 1 h plates were washed twice with, and resuspended in, assay buffer containing probenecid (0.1 mM) using a multi plate washer. […] Fluorescence measurements were then continued every 1 S for 120 S followed by every 4 S for 240 S.
The measurements were typically made in two sequences:
Compounds of formula I were tested usually in a concentration range from 10^−9 M to 10^−5 M.
In the second round, performed one hour later (to allow for equilibration), Orexin A was tested either in the absence (calibration curves, Orexin A agonist controls) or in the presence of compounds of formula I to determine antagonism.

The chains behind the UniProt entries cited, without tags or fusion partners.
UniProt O43613, whole entry: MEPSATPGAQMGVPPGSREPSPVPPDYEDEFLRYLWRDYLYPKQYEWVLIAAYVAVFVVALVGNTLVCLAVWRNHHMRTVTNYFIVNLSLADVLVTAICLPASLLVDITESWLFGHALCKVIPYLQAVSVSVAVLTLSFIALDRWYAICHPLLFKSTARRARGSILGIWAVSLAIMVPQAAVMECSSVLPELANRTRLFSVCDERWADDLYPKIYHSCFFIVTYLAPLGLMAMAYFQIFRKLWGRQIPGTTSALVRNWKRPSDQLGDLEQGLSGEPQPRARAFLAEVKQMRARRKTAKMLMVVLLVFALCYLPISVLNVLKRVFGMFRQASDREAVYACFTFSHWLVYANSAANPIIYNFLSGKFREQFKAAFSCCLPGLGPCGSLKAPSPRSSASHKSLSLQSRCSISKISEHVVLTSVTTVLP

The target in experiment [2] is T1, hOx1R. The experiment is described as follows: Radioligand binding assay, [3H]-SB649868, hOx1R. To be noted: radioligand [3H]-SB649868, competition. How it is done: For crude cell membrane preparations, cells (CHO, Chinese hamster ovary or HEK, human embryonic kidney) expressing human orexin 1 or human orexin 2 receptors, were washed with HEPES (10 mM, pH 7.5), scraped off the culture plates with the same buffer, and centrifuged at 4° C. for 5 min at 2500×g. The cell pellet was either stored at −80° C. or used directly. Before the experiments, cell membranes were re-suspended in binding assay buffer (10 mM HEPES, 0.5% (w/v) bovine serum albumin, pH 7.5) by homogenisation with a Polytron homogeniser at 50 Hz for 20 s. Cell membranes were also used as made available by commercial providers.
Bound radioactivity was measured, and data were analysed with the program XLFIT or Graphpad Prism. Protein concentration was determined according to the Bradford/BioRad Protein Assay Kit.
In competition experiments, cell homogenates (150 μl) were incubated in assay buffer (10 mM HEPES, pH 7.5, 0.5% (w/v) bovine serum albumin, 5 mM MgCl2, 1 mM CaCl2, and tween 0.05%) for 1 h at room temperature with about 1 nM of the radioligand [^3H]-SB649868, 66 Ci/mmole, 50 μl), and with various concentrations of compounds of the invention (50 μl) in triplicates; non-specific binding was determined in the presence of almorexant (10 μM).

We go through 2 compounds from patent US8530648B2, “Diaza-spiro[5.5]undecanes” (Novartis AG, priority 2009, dated 2013).

As usually defined, the Ki is a measure of affinity in units of concentration, obtained from inhibition or displacement. For orientation: Kd means a measure of binding affinity in units of concentration. Low readings indicate higher affinity, high ones lower affinity.

On to `Cc1noc(-c2cccc(CN3CCCC4(CCN(c5cnc6ccccc6n5)CC4)C3=O)c2)n1` [Example 104, 2-(3-(3-methyl-1,2,4-oxadiazol-5-yl)benzyl)-9-(quinoxalin-2-yl)-2,9-diazaspiro[5.5]undecan-1-one], for which the Ki on hOx1R [1] came to 1.01 µM. Further, the Kd on hOx1R [2] came to 4.58 µM. On to `CN1CCc2c(CN3CCCC4(CCN(c5cnc6ccccc6n5)CC4)C3=O)cccc21` [Example 145, 2-((1-methylindolin-4-yl)methyl)-9-(quinoxalin-2-yl)-2,9-diazaspiro[5.5]undecan-1-one], for which, on hOx1R [1], the Ki came to 4.01 µM.
